Results published in ChEMBL document CHEMBL4312018, “Novel benzimidazole phosphonates as potential inhibitors of protein prenylation” (Bioorg Med Chem Lett, 2019).

By UniProt entry, the sequences of proteins in these tests, tags left out. Where a name states a change or a piece, a line headed by the entry shows the natural chain unless it says otherwise.
UniProt P53611: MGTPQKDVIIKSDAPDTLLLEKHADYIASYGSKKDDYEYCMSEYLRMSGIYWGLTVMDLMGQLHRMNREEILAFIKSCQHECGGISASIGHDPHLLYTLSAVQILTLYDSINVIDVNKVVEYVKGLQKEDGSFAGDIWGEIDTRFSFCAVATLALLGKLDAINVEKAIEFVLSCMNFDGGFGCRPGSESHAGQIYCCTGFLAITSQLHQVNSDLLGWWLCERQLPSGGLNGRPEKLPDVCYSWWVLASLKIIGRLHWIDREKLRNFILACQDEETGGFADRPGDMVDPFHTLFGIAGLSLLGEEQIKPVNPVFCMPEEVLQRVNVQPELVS
UniProt Q92696: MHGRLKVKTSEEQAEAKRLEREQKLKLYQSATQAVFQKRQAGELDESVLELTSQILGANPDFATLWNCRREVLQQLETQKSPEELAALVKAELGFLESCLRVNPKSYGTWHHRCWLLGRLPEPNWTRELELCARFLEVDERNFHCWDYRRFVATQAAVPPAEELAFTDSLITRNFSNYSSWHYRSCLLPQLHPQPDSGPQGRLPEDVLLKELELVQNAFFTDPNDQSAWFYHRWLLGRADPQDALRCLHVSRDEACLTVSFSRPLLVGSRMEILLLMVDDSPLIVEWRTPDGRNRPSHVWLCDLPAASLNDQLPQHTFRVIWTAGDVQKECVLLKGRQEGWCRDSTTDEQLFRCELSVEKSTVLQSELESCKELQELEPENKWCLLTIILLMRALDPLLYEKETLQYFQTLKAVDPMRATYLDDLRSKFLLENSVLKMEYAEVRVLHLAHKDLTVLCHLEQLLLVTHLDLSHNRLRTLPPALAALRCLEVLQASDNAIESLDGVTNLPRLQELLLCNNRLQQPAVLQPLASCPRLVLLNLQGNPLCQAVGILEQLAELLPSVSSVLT

Target: Geranylgeranyl transferase type-2 (Homo sapiens) (UniProt P53611+Q92696)
Assay: Inhibition of GGTase-2 in human RPMI8226 cells assessed as ratio of calnexin to Rab6 level at 10 uM after 48 hrs by immunoblot analysis relative to control
Type: cell-based

- fold change (FC): 0.4
SMILES: CC[C@H](C)C(=O)O[C@H]1C[C@@H](C)C=C2C=C[C@H](C)[C@H](CC[C@@H]3C[C@@H](O)CC(=O)O3)[C@H]21
